t1/2 and Stability data for four compounds are collected here from ChEMBL document CHEMBL3227956 (J Med Chem, 1979).

Molecules are shown by their SMILES. A value given as a limit tells only on which side of the number the result lay.

A short description of series [1]: Half life in D2O/Me2SO-d6 at 80 degC.
Series [2] can be described thus: Half life in D2O/Me2SO-d6 at 50 degC.
Series [3] in a line: Hydrolytic stability in D2O/Me2SO-d6 at 0.07 M at 37 degC after 40 days by NMR analysis. Also on record: scale not given: the % may be the effect or the level left. The following applies: 960 h.

Turning to `O=[P@]1(N(CCCl)CCCl)OC[C@@H]2C[N@@]21`, the t1/2 in series [1] is < 30 min. `O=[P@@]1(N(CCCl)CCCl)OC[C@@H]2C[N@@]21`: the results for the t1/2 in series [2] and in series [1] were 5 min and < 30 min, respectively. As for `O=P1(N(CCCl)CCCl)NCC(Br)CO1` (stereo not given), the Stability in series [3] was found to be 50%. In the case of `O=P1(N(CCCl)CCCl)OCC2CN21` (stereo not given), the Stability result in series [1] is given as “Stable”.
